This test concerns the target Alpha-2B adrenergic receptor (Rattus norvegicus, UniProt P19328). Put plainly: Effective Concentration at Alpha-2B adrenergic receptor from CHO-RNG cells. Type of test: functional, cell-based. Put shortly: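 Functional agonist response measured by Cytosensor microphysiometry in CHO cells expressing α2A (CHO-C10) or rat α2B (CHO-RNG) adrenoceptor.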

The chains behind the UniProt entries cited, without tags or fusion partners.
UniProt P19328, whole entry: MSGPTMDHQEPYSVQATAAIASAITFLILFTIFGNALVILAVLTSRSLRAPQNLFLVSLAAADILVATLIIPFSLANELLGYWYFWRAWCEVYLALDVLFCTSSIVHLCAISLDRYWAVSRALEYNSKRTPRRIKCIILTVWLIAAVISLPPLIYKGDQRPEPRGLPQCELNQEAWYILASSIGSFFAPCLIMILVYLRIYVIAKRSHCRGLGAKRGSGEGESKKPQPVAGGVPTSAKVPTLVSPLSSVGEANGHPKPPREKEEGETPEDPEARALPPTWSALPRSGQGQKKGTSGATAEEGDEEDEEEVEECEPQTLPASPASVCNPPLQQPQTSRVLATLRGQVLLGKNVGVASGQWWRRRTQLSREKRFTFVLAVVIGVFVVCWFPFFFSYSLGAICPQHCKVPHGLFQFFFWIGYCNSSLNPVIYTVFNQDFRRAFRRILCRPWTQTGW

In the case of `Brc1c(NC2=NCCN2)ccc2nccnc12` [BRIMONIDINE], the half-maximal effective concentration (EC50) was found to be 55 nM.

As a reminder, the EC50 is the concentration needed to bring the measured effect to its halfway point.
